Laboratory results reported in patent US20030199692A1, “Propanoic acid derivatives that inhibit the binding of integrins to their receptors” (priority 1999, published 2003).

The chains behind the UniProt entries cited, without tags or fusion partners. Residues count along the entry.
UniProt P05556, 21-798 limits assumed: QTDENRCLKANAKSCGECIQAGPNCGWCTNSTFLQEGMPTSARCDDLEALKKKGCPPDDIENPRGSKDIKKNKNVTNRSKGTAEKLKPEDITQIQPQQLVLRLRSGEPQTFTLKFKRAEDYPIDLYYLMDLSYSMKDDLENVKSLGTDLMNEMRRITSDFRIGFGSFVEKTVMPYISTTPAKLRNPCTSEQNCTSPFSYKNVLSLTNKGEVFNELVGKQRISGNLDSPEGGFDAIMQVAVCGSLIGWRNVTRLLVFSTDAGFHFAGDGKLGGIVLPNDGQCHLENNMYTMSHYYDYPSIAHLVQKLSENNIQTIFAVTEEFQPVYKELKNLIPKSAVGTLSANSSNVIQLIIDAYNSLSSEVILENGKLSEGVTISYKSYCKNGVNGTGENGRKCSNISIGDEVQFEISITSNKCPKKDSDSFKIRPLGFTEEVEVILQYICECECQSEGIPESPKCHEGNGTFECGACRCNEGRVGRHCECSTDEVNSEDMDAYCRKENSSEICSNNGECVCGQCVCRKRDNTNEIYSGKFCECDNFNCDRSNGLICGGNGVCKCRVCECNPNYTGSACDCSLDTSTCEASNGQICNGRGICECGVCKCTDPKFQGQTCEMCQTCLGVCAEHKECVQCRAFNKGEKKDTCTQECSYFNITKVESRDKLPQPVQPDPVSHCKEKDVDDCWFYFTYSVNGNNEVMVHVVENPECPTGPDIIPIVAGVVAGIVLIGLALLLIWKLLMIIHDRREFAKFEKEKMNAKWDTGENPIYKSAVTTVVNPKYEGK
UniProt P13612, 34-1032 limits assumed: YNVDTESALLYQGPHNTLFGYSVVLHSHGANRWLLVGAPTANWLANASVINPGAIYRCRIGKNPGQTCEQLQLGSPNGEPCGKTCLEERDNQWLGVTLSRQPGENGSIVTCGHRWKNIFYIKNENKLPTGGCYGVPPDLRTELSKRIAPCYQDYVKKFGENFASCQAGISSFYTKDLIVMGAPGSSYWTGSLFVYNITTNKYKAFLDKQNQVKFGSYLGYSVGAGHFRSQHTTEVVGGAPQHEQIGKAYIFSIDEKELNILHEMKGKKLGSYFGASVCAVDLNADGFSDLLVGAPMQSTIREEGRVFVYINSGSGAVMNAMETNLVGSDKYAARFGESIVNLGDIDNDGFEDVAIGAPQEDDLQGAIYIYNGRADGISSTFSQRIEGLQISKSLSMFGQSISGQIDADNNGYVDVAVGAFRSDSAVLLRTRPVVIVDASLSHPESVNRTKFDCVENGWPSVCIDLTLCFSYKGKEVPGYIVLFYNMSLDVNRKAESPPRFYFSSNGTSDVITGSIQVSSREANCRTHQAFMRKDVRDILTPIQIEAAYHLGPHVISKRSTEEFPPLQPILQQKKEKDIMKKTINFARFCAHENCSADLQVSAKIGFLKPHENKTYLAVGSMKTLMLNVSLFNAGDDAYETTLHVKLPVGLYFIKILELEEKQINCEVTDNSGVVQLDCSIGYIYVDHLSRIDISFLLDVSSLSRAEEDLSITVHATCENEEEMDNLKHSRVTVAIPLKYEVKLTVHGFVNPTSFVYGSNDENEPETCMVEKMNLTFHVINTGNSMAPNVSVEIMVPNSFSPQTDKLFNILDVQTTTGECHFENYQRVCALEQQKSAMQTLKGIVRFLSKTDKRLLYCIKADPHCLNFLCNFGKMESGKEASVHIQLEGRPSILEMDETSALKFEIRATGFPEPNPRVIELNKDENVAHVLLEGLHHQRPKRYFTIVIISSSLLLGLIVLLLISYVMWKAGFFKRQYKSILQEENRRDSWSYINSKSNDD

Target: α4β1 integrin (Homo sapiens, UniProt P05556+P13612)
Assay: Inhibition of adhesion of calcein AM-labeled Ramos cells to CS1 (fibronectin) peptide-conjugated ovalbumin
Settings: Table 1; Ramos cell adhesion to CS1-conjugated ovalbumin, 30 minutes at 37° C.

For `CCCC[C@H](C(=O)N[C@@H](CC(=O)O)c1ccc2c(c1)OCO2)n1cc(C)cc(Cc2ccccc2)c1=O`, the IC50 was 2 µM.
